Test system: Cetuximab
Test: Cetuximab conjugation, anti-biotin Western blot
Settings: reduced antibody, pH 7.4 to 8.5
Text: Finally, the inventors applied this new cysteine-selective reaction sequence for the conjugation of IgG-antibodies (scheme 11). The modification strategy relies on a two-step reduction-alkylation approach, previously applied to maleimide conjugation (S. O. Doronina, B. E. Toki, M. Y. Torgov, B. A. Mendelsohn, C. G. Cerveny, D. F. Chace, R. L. DeBlanc, R. P. Gearing, T. D. Bovee, C. B. Siegall, J. A. Francisco, A. F. Wahl, D. L. Meyer, P. D. Senter, Nat Biotech 2003, 21, 778-784). In the first step the interchain disulphide bridges that hold the antibody together are reduced upon treatment with dithiothreitol (DTT). The free thiols can then react with the phosphonothiolates in a thiol addition reaction. First experiments were conducted with Cetuximab, a monocolonal IgG1 antibody against human epidermal growth factor.
As a proof of principle the antibody was modified with biotin alkene-derivative 4 and analysed by SDS-PAGE, followed by an anti-biotin western blotting.
1.25 μl of a 100 μM solution of Cetuximab antibody (in PBS) was mixed with 10 μl borate containing PBS (50 mM borate, pH 8.0) and 1.25 μl of a DTT solution (100 mM DTT in same borate buffer, pH 8.0). Control samples were prepared similarly, without adding DTT. These mixtures were incubated on a thermo-shaker for 30 min at 37° C. […]

For `C#CP(=O)(OCC)SCCNC(=O)CCCC[C@@H]1SC[C@@H]2NC(=O)N[C@@H]21` (stereo partly shown), the “labelling of the antibody in dependence of pH” value was “more labelling of the antibody is obtained with the alkyne-phosphonothiolate with increasing pH”.

— patent publication US12453779B2, “Chemoselective thiol-conjugation with alkene or alkyne-phosphonothiolates and -phosphonates” (FORSCHUNGSVERBUND BERLIN E.V., priority 2018, dated 2025)
